We go through one molecule from PMC5454376 (Nature Communications, 2017).

This assay has as its target T1, Human His-Gαi3 WT (human, UniProt P08754 1-354).
T1 construct: Gαi3, human, UniProt P08754, full length; same plasmid as for the NMR studies; also called His-tagged Gαi3; tagged protein; source: E. coli, pET24d(+), purified as uncleaved His-tagged protein (HisPur Cobalt Resin); not shown: His tag, N-terminal, kept
Put plainly: fluorescence polarisation; fluorescein-labelled peptide 0.025 μM, G protein 0–8 μM; room temperature; 50 mM Tris-HCl pH 7.4, 100 mM NaCl, 0.4% NP-40, 10 mM MgCl2, 5 mM EDTA, 2 mM DTT, 30 μM GDP; one site binding hyperbola. The conditions noted are these: both partners purified.

B1: Fluorescein-labelled DAPLE peptide (residues 1,662–1,695) (peptide)
peptide: SASPSSEMVTLEEFLEESNRSSPTHDTPSCRDDL
modifications: 5,6-carboxyfluorescein coupled to the resin-bound peptide after chain elongation
notes: DAPLE, human, residues 1,662–1,695; also called GBA motif of DAPLE; DAPLE-derived peptide; source: synthetic peptide
With B1, the binding result is given as “binds”.
